Entries after “also recorded” stand apart in the source; their conditions may differ.
Tested on: phosphorylated CaMKII
Assay: pCaMKII activation in human colonic mucosa / proximal colon
Format: cell-based

Cc1ccc(-c2ccc(F)cc2COc2ccc(CCC(=O)O)cc2)cc1 [TUG891, 3-(4-((4-fluoro-4′-methyl-[1,1′-biphenyl]-2-yl)methoxy)phenyl)propanoic acid]
activation of 5-HT positive (EC) cells: some activated cells identified as EC cells
activation of intracellular pathway driven by phosphorylated CaMKII: preferentially activates; also recorded: only activates
cellular activation as measured by expression of pCAMKII: significantly increases
